From PubChem BioAssay (NCATS) come the findings set out here.

By UniProt entry, the sequences of proteins in these tests, tags left out. Residues count along the entry.
UniProt Q03181, whole entry: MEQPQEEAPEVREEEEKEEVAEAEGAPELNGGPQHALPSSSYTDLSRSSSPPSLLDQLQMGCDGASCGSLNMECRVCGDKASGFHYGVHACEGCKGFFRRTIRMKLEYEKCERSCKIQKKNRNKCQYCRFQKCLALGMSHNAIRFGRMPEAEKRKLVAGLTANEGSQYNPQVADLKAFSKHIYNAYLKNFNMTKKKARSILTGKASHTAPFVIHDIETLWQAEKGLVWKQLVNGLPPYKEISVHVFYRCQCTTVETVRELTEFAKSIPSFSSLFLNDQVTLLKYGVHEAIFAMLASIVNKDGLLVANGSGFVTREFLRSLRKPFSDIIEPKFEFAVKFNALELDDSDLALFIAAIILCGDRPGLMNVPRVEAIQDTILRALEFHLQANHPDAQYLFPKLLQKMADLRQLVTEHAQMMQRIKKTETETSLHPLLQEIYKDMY
UniProt P10828, whole entry: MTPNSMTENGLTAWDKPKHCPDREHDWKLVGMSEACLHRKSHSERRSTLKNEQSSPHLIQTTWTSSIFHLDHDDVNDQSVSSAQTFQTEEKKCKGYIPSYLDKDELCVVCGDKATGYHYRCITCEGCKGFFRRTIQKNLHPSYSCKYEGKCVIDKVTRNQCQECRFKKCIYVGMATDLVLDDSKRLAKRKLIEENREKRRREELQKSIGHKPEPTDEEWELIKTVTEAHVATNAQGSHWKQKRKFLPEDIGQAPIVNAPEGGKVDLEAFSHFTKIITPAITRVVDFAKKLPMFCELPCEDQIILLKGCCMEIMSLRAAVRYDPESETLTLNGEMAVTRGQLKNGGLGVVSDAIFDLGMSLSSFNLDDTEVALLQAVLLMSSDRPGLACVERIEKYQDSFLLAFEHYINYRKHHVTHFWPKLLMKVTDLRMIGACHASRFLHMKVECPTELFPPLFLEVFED
UniProt Q12809, 1-548 isoform 6: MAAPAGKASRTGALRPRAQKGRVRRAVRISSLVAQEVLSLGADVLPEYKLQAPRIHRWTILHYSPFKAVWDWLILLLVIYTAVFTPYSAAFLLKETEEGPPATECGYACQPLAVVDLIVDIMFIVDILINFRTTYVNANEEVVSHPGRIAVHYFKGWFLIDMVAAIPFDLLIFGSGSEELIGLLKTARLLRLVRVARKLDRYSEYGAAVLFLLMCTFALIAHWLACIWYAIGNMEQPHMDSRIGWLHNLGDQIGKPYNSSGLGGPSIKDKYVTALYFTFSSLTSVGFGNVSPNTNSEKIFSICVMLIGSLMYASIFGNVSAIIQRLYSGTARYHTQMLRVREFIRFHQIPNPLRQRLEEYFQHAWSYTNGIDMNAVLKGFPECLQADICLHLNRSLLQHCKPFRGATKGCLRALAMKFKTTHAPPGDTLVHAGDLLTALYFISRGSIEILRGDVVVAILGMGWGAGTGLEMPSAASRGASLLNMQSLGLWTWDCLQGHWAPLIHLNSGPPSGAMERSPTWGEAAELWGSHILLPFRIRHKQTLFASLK
UniProt P10275, whole entry: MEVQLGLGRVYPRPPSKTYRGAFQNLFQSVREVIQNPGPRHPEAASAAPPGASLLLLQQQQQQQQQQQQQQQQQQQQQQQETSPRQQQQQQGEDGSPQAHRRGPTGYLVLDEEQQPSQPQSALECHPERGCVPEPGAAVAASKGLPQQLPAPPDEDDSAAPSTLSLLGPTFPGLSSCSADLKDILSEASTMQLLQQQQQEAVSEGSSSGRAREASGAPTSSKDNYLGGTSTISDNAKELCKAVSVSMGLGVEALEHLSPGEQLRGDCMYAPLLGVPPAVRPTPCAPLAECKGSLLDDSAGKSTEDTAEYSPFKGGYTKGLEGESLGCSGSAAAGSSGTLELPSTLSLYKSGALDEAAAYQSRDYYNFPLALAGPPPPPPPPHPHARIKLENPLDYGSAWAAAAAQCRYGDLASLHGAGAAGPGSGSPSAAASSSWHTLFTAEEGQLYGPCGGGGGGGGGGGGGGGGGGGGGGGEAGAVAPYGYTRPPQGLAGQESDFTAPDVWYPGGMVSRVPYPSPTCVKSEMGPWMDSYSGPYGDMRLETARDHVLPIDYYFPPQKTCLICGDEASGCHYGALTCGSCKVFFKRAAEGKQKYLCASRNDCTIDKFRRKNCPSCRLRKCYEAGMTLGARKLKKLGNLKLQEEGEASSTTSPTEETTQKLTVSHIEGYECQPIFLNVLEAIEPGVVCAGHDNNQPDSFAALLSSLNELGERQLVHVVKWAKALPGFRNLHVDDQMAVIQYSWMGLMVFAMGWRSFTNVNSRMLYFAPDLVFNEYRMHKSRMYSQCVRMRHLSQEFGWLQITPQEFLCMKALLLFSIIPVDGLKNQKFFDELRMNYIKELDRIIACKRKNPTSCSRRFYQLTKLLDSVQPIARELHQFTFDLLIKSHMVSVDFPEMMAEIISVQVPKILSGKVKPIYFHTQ

Assay [1] has as its target Estrogen receptor (Homo sapiens) (UniProt P03372). The experiment in a line: qHTS assay for small molecule antagonists of estrogen receptor alpha signaling (AID 588513; active means well fitted curve in the direction sought with a large enough effect in the signal ratio, with a control signal flat, not every such curve was filed as active; the % refers to the signal ratio; further: on the % scale 0 is the no-effect control and ±100 the full control effect). Conditions: ER-alpha-UAS-bla HEK293, beta-lactamase ratio, antagonist mode; at 76.9 µM (top of the series).
Assay [2] has the same target. The experiment in a line: qHTS assay for small molecule agonists of estrogen receptor alpha signaling (AID 588514).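 Further: 0% = vehicle only and 100% = reference agonist; nearly all actives have a fitted effect of over 70% in size.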 Conditions: ER-alpha-UAS-bla HEK293, beta-lactamase ratio, 18 h, percent of full estradiol response, vehicle zero; at 76.8 µM (top of the series).
Assay [3] has as its target Bile acid receptor (Homo sapiens) (UniProt Q96RI1). Put plainly: qHTS assay for small molecule antagonists of farnesoid X receptor signaling (AID 588526). Further: on the % scale 0 is the no-effect control and ±100 the full control effect. Conditions: HEK293T FXR-UAS-bla, beta-lactamase ratio, antagonist mode; at 76.7 µM (top of the series).
The target is the same in assay [4]. The experiment in a line: qHTS assay for small molecule agonists of farnesoid X receptor signaling (AID 588527).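 Further: 0% = vehicle basal and 100% = reference agonist.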 Conditions: HEK293T FXR-UAS-bla, beta-lactamase ratio, 16 h; stronger effect = higher value.
In assay [5] the target is Glucocorticoid receptor (Homo sapiens) (UniProt P04150). Put plainly: qHTS assay for small molecule agonists of glucocorticoid receptor signaling (AID 588532; active means well fitted curve in the direction sought with a large enough effect in the signal ratio, with a control signal flat; the % refers to the signal ratio;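 further: 100% = dexamethasone at 0.1 µM and 0% = DMSO only wells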). The following applies: HeLa MMTV-bla, beta-lactamase ratio, agonist, 18 h; stronger effect = higher value.
Assay [6] shares this target. Put plainly: qHTS assay for small molecule antagonists of glucocorticoid receptor signaling (AID 588533; active means well fitted inhibition curve with a large enough effect in the signal ratio, with a control signal flat, not every such curve was filed as active; the % refers to the signal ratio;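 further: cells stimulated with 2 nM dexamethasone as agonist; on the % scale 0 is the no-effect control and ±100 the full control effect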). Conditions: HeLa MMTV-bla, GRE beta-lactamase ratio, antagonist mode, 18 h; at 76.8 µM (top of the series).
Assay [7] deals with Peroxisome proliferator-activated receptor delta (Homo sapiens) (UniProt Q03181). Put plainly: qHTS assay for small molecule agonists of peroxisome proliferator-activated receptor delta signaling (AID 588534).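 Further: 0% = DMSO basal wells and 100% = positive control agonist at 10 µM.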 The following applies: HEK293T PPARdelta-UAS-bla, beta-lactamase ratio, 18 h; at 76.7 µM (top of the series).
Assay [8] shares this target. Put plainly: qHTS assay for small molecule antagonists of peroxisome proliferator-activated receptor delta signaling (AID 588535; active means well fitted inhibition curve with a large enough effect in the signal ratio, with a control signal flat, not every such curve was filed as active; the % refers to the signal ratio). Conditions: HEK293T PPARd-UAS-bla, beta-lactamase FRET ratio, 18 h; at 76.7 µM (top of the series).
For assay [9], the target named is Peroxisome proliferator-activated receptor gamma (Homo sapiens) (UniProt P37231). The experiment in a line: qHTS assay for small molecule agonists of peroxisome proliferator-activated receptor gamma signaling (AID 588536; active means well fitted curve in the direction sought with a large enough effect in the signal ratio, with a control signal flat, not every such curve was filed as active; the % refers to the signal ratio). The following applies: HEK293 PPARg-UAS-bla, beta-lactamase ratio, 16 h, percent of rosiglitazone response, DMSO as zero; at 76.7 µM (top of the series). In outline: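 HEK293 UAS-bla reporter line, 1% charcoal/dextran FBS; titration, 16 h, 37 C; CCF4 loading 2 h RT; fluorescence 460/530 nm. Normalized to rosiglitazone 2 uM = 100%, DMSO = 0%.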

For assay [10] the target is unchanged. Put plainly: qHTS assay for small molecule antagonists of peroxisome proliferator-activated receptor gamma signaling (AID 588537; active means well fitted inhibition curve with a large enough effect in the signal ratio, with a control signal flat, not every such curve was filed as active; the % refers to the signal ratio; further: potency means the concentration at half of the fitted maximal effect;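 on activity, negative = inhibition: reporter cells co-stimulated with 50 nM rosiglitazone agonist during compound treatment; % of control where 0% means no effect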). In outline:
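Antagonist mode, beta-lactamase reporter in HEK293; charcoal/dextran FBS 1%; 3000 cells/well, 37 C 6-6.5 h; cpd titration + rosiglitazone 50 nM final, 16 h 37 C; CCF4, 2 h RT; 460/530 nm; Hill fit → IC50, efficacy.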

Assay [11] concerns the target Vitamin D3 receptor (Homo sapiens) (UniProt P11473). The experiment in a line: qHTS assay for small molecule antagonists of vitamin D receptor signaling (AID 588541).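 Further: receptor activated by calcitriol during compound treatment; on the % scale 0 is the no-effect control and ±100 the full control effect.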 Conditions: HEK293T VDR-UAS-bla, beta-lactamase ratio, antagonist mode; at 76.7 µM (top of the series). The procedure, abridged: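 Antagonist-mode beta-lactamase reporter assay: HEK293T VDR-UAS-bla cells were exposed to titrated compound alongside 1-alpha,25-dihydroxyvitamin D3 at 3 nM final for 16 h. Values were normalized to the 50 nM agonist control and DMSO basal, with IC50 and efficacy from Hill equation fits.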

The target is the same in assay [12]. The experiment in a line: qHTS assay for small molecule agonists of vitamin D receptor signaling (AID 588543).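 Further: 0% = DMSO basal and 100% = reference agonist control.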 The following applies: HEK293T VDR-UAS-bla, beta-lactamase ratio, 16 h; at 76.8 µM (top of the series). In outline: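 VDR-UAS-bla HEK293T cells, 2000/well, 2% charcoal-stripped FBS; compound titration 16 h at 37 C; CCF4 beta-lactamase ratio read. Normalized to 50 nM 1-alpha,25-dihydroxyvitamin D3 (100%) and DMSO; Hill fit gives EC50, efficacy.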

Assay [13] addresses Retinoic acid receptor RXR-alpha (Homo sapiens) (UniProt P19793). Put plainly: qHTS assay for small molecule agonists of retinoid X receptor alpha signaling (AID 588544).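 Further: 0% = DMSO basal wells and 100% = reference agonist.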 Conditions: HEK293T RXRa-UAS-bla, beta-lactamase reporter, 18 h; at 76.7 µM (top of the series).
Assay [14] concerns the target Thyroid hormone receptor beta (Homo sapiens) (UniProt P10828). Put plainly: qHTS assay for small molecule agonists of thyroid hormone receptor beta signaling (AID 588545).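 Further: 0% = DMSO only and 100% = 10 nM T3.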 The following applies: TR-UAS-bla GripTite HEK 293, beta-lactamase ratio, agonist mode, 18 h, percent of T3 response, DMSO as zero; at 76.7 µM (top of the series). In outline:
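TR-UAS-bla GripTite HEK 293 cells (2500/well, medium with 2% charcoal/dextran FBS) were treated in agonist mode for 18 h at 37 C, titrated. Beta-lactamase was read by CCF4 ratio after 2 h; normalized to 10 nM T3 (100%) and DMSO, Hill-fitted for EC50 and efficacy.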

For assay [15] the target is unchanged. The experiment in a line: qHTS assay for small molecule antagonists of thyroid hormone receptor beta signaling (AID 588547; active means well fitted inhibition curve with a large enough effect in the signal ratio, with a control signal flat, not every such curve was filed as active; the % refers to the signal ratio). The following applies: TR-UAS-bla HEK293, beta-lactamase ratio, antagonist mode, 18 h; stronger effect = lower value. The procedure, abridged:
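Inhibition of T3-driven (0.4nM final) beta-lactamase reporter activity was measured over 0.59 nM to 92 uM compound after 18 h at 37 C. The cells were GripTite HEK293 TR-UAS-bla in charcoal/dextran-stripped serum, with CCF4 ratio read-out and IC50 from Hill fits.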

Assay [16] concerns the target Voltage-gated inwardly rectifying potassium channel KCNH2 (Homo sapiens) (UniProt Q12809). The experiment in a line: qHTS Assay for Small Molecule Inhibitors of the Human hERG Channel Activity (AID 588834; active means well fitted inhibition curve with a large enough effect;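 further: U2OS cells transduced with hERG by BacMam; top concentration of the series differs between compounds; on the % scale 0 is the no-effect control and ±100 the full control effect; lower thallium flux fluorescence means stronger hERG block; nearly all actives have a fitted effect of over 50% in size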). The following applies: U2OS BacMam hERG, FluxOR thallium flux fluorescence.
For assay [17], the target named is Androgen receptor (Homo sapiens) (UniProt P10275). Put plainly: qHTS assay for small molecule agonists of androgen receptor signaling (AID 588515; active means well fitted curve in the direction sought with a large enough effect in the signal ratio, with a control signal flat; the % refers to the signal ratio; further: on the % scale 0 is the no-effect control and ±100 the full control effect). The following applies: AR-UAS-bla HEK293, beta-lactamase ratio, agonist 16 h; stronger effect = higher value.
The target is the same in assay [18]. The experiment in a line: qHTS assay for small molecule antagonists of androgen receptor signaling (AID 588516; active means well fitted curve in the direction sought with a large enough effect in the signal ratio, with a control signal flat, not every such curve was filed as active; the % refers to the signal ratio; further: on the % scale 0 is the no-effect control and ±100 the full control effect). Conditions: AR-UAS-bla HEK293, beta-lactamase ratio, antagonist mode, 16 h; at 76.8 µM (top of the series).

Several values for one entry are separate records, joined by “and”; a condition that tells them apart may be missing. Equal values may be shown once. The list shows a part of the results, in another mix than the full data. Results filed as inconclusive are left out. For part of these data: Results with a measured potency or affinity are listed apart. Activity calls are given as the source filed them. Unless noted, the call rests on the fitted dose curve.

Consider `O=[N+]([O-])c1cccc([N+](=O)[O-])c1`, for which the activity, negative = inhibition in assay [1] was inactive: -20.8% and inactive: -0.0557%. Also, the activation in assay [2] is inactive: -0.292% and inactive: 2.07%; in assay [4], inactive: 3.63% and inactive: 2.17%; in assay [5] it was inactive: 2.4% and inactive: 0.597%; in [7], inactive: 0.54% and inactive: 5.33%; in [9], inactive: 5.76% and inactive: 3.28%; in assay [12], inactive: 3.89% and inactive: 4.78%. The activation in [13] is inactive: -4.79%; in assay [14], inactive: -25.3% and inactive: -4.82%. Moreover, the activity change, negative = inhibition in assay [3] is inactive: 15.6%; in assay [6] it was inactive: 22%; in assay [8], inactive: 21% and inactive: 9.21%; in [11] it was inactive: 5.91% and inactive: 2.32%; in [16] (at 46.1 µM (top of the series)) it was inactive: -4.7%; in assay [16] (at 92.2 µM (top of the series)), inactive: 4.81%. The Potency entry in [10] was “inactive”. The inhibition in assay [15] was inactive: -1.4% and inactive: 9.98%.
Consider `CC(C)OP(=O)(F)OC(C)C`, for which the activity change, negative = inhibition in assay [16] (at 46.1 µM (top of the series)) is inactive: 18.3%.
In the case of `Cc1ccc([N+](=O)[O-])c([N+](=O)[O-])c1`, the activity, negative = inhibition in assay [1] was inactive: -23.6%. Besides, the activation in assay [2] is inactive: 0.178% and inactive: -4.98%; in [5], inactive: 3.57%; in assay [9], inactive: 4.72%; in assay [13], inactive: -15.3% and inactive: -8.29%; in [14], inactive: -33.9% and inactive: -6.61%. Moreover, the activity change, negative = inhibition was inactive: -3.59% and inactive: -1.24% in assay [6]; inactive: 11.2% in [11]; inactive: 0.866% in assay [16] (at 92.2 µM (top of the series)). The inhibition in assay [15] was inactive: 25.9% and inactive: 10.1%.
Turning to `O=[N+]([O-])OCC(CO[N+](=O)[O-])(CO[N+](=O)[O-])CO[N+](=O)[O-]`, the activity change, negative = inhibition in [16] (at 46.1 µM (top of the series)) is inactive: -0.398%.
Turning to `CCOP(=S)(CC)Oc1cc(Cl)c(Cl)cc1Cl` (stereo unspecified), the activation in [2] was inactive: 14%; in [17], inactive: -1.98%; in [4], inactive: 1.39%; in [5] it was inactive: 5.51%; in [7] it was inactive: 2.14%; in [12] it was inactive: -2.56%. Moreover, in assay [13], the activation was inactive: -6.12%. The activity change, negative = inhibition in assay [18] is inactive: -17.1%; in assay [3], inactive: -5.72%; in assay [6] it was inactive: -12%; in assay [8] it was inactive: -12.7%; in [11], inactive: 5.46%. The Potency result in [10] was “inactive”. Besides, the inhibition in assay [15] was inactive: -0.529%.
For the molecule `C/C1=C2N=C(/C=C3N=C(/C(C)=C4\[N-][C@@](C)([C@@H]5N=C1[C@](C)(CCC(=O)NC[C@@H](C)OP(=O)([O-])O[C@H]1[C@@H](O)[C@@H](n6cnc7cc(C)c(C)cc76)O[C@@H]1CO)[C@H]5CC(N)=O)[C@@](C)(CC(N)=O)[C@@H]4CCC(N)=O)[C@@](C)(CC(N)=O)[C@@H]\3CCC(N)=O)C(C)(C)[C@@H]/2CCC(N)=O.[C-]#N.[Co+3]`, in assay [16] (at 20.6 µM (top of the series)), the activity change, negative = inhibition was inactive: 5.6%.
For the molecule `Cc1cccc([N+](=O)[O-])c1[N+](=O)[O-]`, the activation in [17] is inactive: -9.79%; in assay [5], inactive: 2.22% and inactive: 1.91%; in assay [7] it was inactive: -0.0575% and inactive: -1.01%; in [9], inactive: 3.16% and inactive: -10.7%; in assay [12] it was inactive: 3.97% and inactive: -2.38%; in assay [13] it was inactive: -4.84%. Also, the activation in assay [14] is inactive: -5.53% and inactive: -9.18%. Further, the activity change, negative = inhibition in [18] was inactive: -13%; in assay [6] it was inactive: -7.34%; in [8], inactive: 7.72% and inactive: 20.6%; in assay [11] it was inactive: 3.07% and inactive: 8.51%; in assay [16] (at 92.2 µM (top of the series)), inactive: 3.35%. Further, the Potency in assay [10] is active: 39.8 µM. Further, the inhibition in [15] was inactive: 8.73% and inactive: -7.84%.
Take `Cc1ccc([N+](=O)[O-])cc1[N+](=O)[O-]`: the activity, negative = inhibition in assay [1] was inactive: -9.66% and inactive: 22.9%. Further, the activation in [2] was inactive: 3.1% and inactive: 0.492%; in assay [9] it was inactive: 6.25%; in assay [12], inactive: -0.552% and inactive: 1.36%; in [13] it was inactive: 4.16% and inactive: 28.3%; in [14], inactive: -13.8% and inactive: -4.76%. In assay [11], the activity change, negative = inhibition is inactive: 3.04% and inactive: 3.7%. Also, in assay [15], the inhibition is inactive: -3.15%.
